## Antibody variant affinities, Ab-14 light chain, assay B

Reference: Li et al. 2023, doi:10.1038/s41467-023-39022-2. File: FLAb, binding data.

Antigen: PDVDLGDISGINAS, a 14-residue peptide of the SARS-CoV-2 spike HR2 region.

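The parent was found by panning a naive human phage display library on the peptide. The variants were designed computationally from a first round of random CDR variants and then made and measured. Their group label is 14L_En_Gibbs (En: ensemble of fine-tuned language models; Gibbs: Gibbs sampling). The assay is AlphaSeq: two haploid yeast populations carry antibody and antigen on their surface. After mating in shaken culture at 30 °C for 16 h, diploids were selected and their barcode pairs sequenced. The ratio of observed to expected reads was calibrated, replicate by replicate, on BCL2-family standards whose Kd was known from biolayer interferometry. The assay was run in six technical replicates.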

Ab-14 is the parent antibody, in scFv form: VH, then a 15-residue (Gly4Ser)3 linker, then VL. The heavy chain is unchanged in all variants.
VH: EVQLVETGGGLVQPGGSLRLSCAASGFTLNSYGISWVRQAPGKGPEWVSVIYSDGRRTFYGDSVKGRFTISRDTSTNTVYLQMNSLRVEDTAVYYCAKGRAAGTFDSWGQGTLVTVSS
VL: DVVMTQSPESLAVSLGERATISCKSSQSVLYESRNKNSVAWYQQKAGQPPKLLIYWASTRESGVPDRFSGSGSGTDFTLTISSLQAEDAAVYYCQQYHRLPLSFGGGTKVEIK

Variants are written as CDR1, CDR2 and CDR3 of the light chain (limits as in the source). Parent: KSSQSVLYESRNKNSVA, WASTRES, QQYHRLPLS.
Affinities are written as log10 Kd with Kd in nM; a lower number is a better binder.
"n.d." marks a missing value. The strain was present, yet no cells mated with the target were sequenced in that replicate, which points to weak or no binding.

CDR-L1,CDR-L2,CDR-L3,"log10 Kd, replicates",control signals
SLFEKEREELSVEDNIA,DGTEHMD,QQYFRLPLL,n.d. n.d. n.d. n.d. n.d. n.d.,0 of 18
MMTMFPNEPTGDSNNIA,DTNQLNT,QQYQRLPLM,0.38 0.38 0.20 0.42 0.06 0.53,1 of 18 (3.06)
KLYYDAAEWVMDTENIA,EKTISYQ,QQYHRLPLS,1.47 1.15 1.96 n.d. 1.47 2.00,0 of 18
DMTGQFNGASNIQHSVA,HGVEKID,QQYVRLPLA,-0.30 -0.40 -0.31 -0.52 -0.23 -0.36,2 of 18 (2.95)
KLVGVSDNDRNPSHNIA,DVSMVDN,QQYHRLPLD,1.59 1.55 1.21 1.00 1.36 2.51,1 of 18 (1.52)
KLMNLMGGIEQMKNSIA,NLELGAR,QQYAHLPLV,n.d. n.d. n.d. n.d. n.d. n.d.,0 of 18
RLLDWAYNLTAKDSNIA,DQDIAGS,QQYSHLPLA,n.d. 4.43 2.29 n.d. 3.17 2.76,1 of 18 (3.10)
QLQIEDNGYMGMRNNVA,DGGMVRM,QQYARLPLM,0.72 0.17 0.45 0.55 0.44 0.77,1 of 18 (2.41)
QVFFQLFEQGMRSQPIA,GTSMRET,QQYARLPLI,0.98 0.83 1.72 1.21 2.04 0.57,0 of 18
HMLYQFETISQRVNNVA,EGATVLD,QQYFRLPIT,0.70 1.19 0.31 0.54 0.19 0.54,0 of 18
SLEMFTGMLNMYASSIA,NATYLVQ,QQYYRLPIS,0.91 0.66 1.06 0.98 0.96 1.11,0 of 18
HLSLRLSYGKDLQNAVA,GVQHRMT,QQYARLPLL,0.80 1.08 0.92 0.84 1.12 1.02,2 of 18 (2.66)
KFDLLMTTEYNNNKNVA,EGVHHLA,QQYERLPLQ,0.95 1.18 1.05 1.56 1.23 1.01,2 of 18 (2.66)
ALQMERLGQKQWQNNIA,NQDMRTA,QQYYMLPLV,-0.73 -0.65 -0.80 -0.34 0.10 -0.52,1 of 18 (0.73)
SLDSYVGYDLQNKKNIA,EETRVDR,QQYAHLPLM,1.40 0.74 1.14 0.92 0.64 1.07,0 of 18
KIEDSNSWHLRGTSAVA,QASTRAA,QQYQRLPLL,0.39 0.31 0.55 0.40 0.26 0.40,6 of 18 (2.90)
KFEQWMFSQNRDDNSIA,HADDLVT,QQYSQLPLT,1.39 1.00 0.79 0.95 0.98 0.79,1 of 18 (2.71)
SFSHESLGSKNEEASIA,STETLMS,QDYARLPLA,n.d. n.d. n.d. n.d. 3.26 3.32,0 of 18
RMDMALPHAHNNVNSIA,EGAIVAD,QQYDRLPLW,2.10 1.54 2.09 0.94 0.94 1.66,1 of 18 (2.53)
KFSGVKEMVNKDQESIA,DAHTVQE,QQYSRLPLA,0.34 0.64 0.19 0.29 0.34 0.20,0 of 18
KMTEQLLNGEREPSSIA,AGVIGSD,QQYHQLPLI,3.01 n.d. 3.54 2.20 2.50 3.55,0 of 18
HIDIINRGEDMKQDPIA,QADHREQ,QQYFHLPLI,1.55 n.d. 2.67 2.39 1.45 2.43,1 of 18 (1.69)
NMTLQVRNGENNKYNIA,AEVKRVY,QQYQRLPLM,1.78 0.60 1.40 1.19 1.13 1.40,1 of 18 (2.77)
QIEILGEEVTQHYSNVA,EQHVTDM,QQYFRLPLS,n.d. n.d. n.d. n.d. n.d. n.d.,0 of 18
KLSMWTYGPTEDKYNVA,EDEMRWQ,QQYDKLPLI,2.55 3.18 2.42 2.09 3.26 1.55,0 of 18
DVTVVDNGASKIQNSIA,SGVEKCD,QQYSRLPLA,0.07 0.09 -0.05 0.13 -0.12 0.13,2 of 18 (2.36)
KLQLGLGVQKNVYYNVA,NESLKTA,QHYFRLPLT,1.92 1.72 1.60 1.82 2.00 1.93,0 of 18
KIRVQQYSQSEMEDNIA,QESTRHQ,QQYFHLPLS,n.d. 1.90 n.d. 1.48 2.02 2.21,2 of 18 (1.50)
KLDMNELGQSQNKNCVA,SSAQKCS,QQYSRLPLS,1.09 1.04 0.91 0.54 0.67 0.99,2 of 18 (2.38)
ALTNEPESVDHHKNNVA,STSKRCM,QQYARLPLS,0.68 0.44 0.14 0.35 0.40 0.60,1 of 18 (4.53)
QVQYAPGESLRHTQSIA,DVNIKDM,QQYSRLPLS,2.99 n.d. 1.97 1.66 1.39 2.74,0 of 18
RLYNQGTEQIQHANSIA,DRDEVDS,QQYAHLPLS,1.06 1.33 0.96 1.18 1.47 1.39,1 of 18 (2.73)
KLTAAQNYYGQNYSNIA,EEVNSLQ,QQYHHLPLS,2.24 n.d. n.d. n.d. n.d. n.d.,0 of 18
RLGMNFTWPGNARQNVA,EIQKAID,QQYAHLPLS,1.45 1.56 2.07 1.26 1.38 1.36,0 of 18
KFDDLMVEWDANQSQVA,DHAEAQH,QQYDRLPLS,n.d. n.d. n.d. n.d. n.d. n.d.,0 of 18
SLIPFENQIMKGTNNIA,HTSVRAS,QQYMRLPFV,0.70 0.60 0.86 0.64 0.65 0.99,1 of 18 (0.82)
RFSQTEEMGIRDYNAVA,NGSTVNT,QHYSRLPIS,1.03 1.06 1.05 0.71 1.23 0.85,0 of 18
NVHALMNHSSEFQNSIA,DEECRDA,QQYFRLPLS,1.58 1.41 0.64 0.52 0.62 1.38,0 of 18
KLSMGWEMNTRQNHNMA,EASLKDS,QQYNRLPLF,0.29 0.61 0.37 -0.11 -0.29 0.46,0 of 18
MMSLCQNGYYQQNNSIA,DVNERAM,QQYGRLPLV,2.07 3.30 1.96 n.d. 2.32 n.d.,2 of 18 (3.25)

For reference, 2 entries of the list once more:

CDR-L1,CDR-L2,CDR-L3,"log10 Kd, replicates",control signals
HMLYQFETISQRVNNVA,EGATVLD,QQYFRLPIT,0.70 1.19 0.31 0.54 0.19 0.54,0 of 18
RLYNQGTEQIQHANSIA,DRDEVDS,QQYAHLPLS,1.06 1.33 0.96 1.18 1.47 1.39,1 of 18 (2.73)

A sequence measured in both rounds can read differently, since the two assays cover different ranges.
The authors averaged sequences with at least three values out of six and counted those with two or fewer as poor binders.
As a blank, each scFv also met three strains without target: over all light chain designs, 4% of these pairings were detected, typically at 2.64 and seldom below 1.59. Also given: how often the same scFv was detected with the empty control strains, with their mean in brackets.